Results from PubChem BioAssay AID1020 (Sanford-Burnham Center for Chemical Genomics, 2008).
The entries are a selection whose mix differs from that of the whole data set. Activity calls are given as the source filed them. Rule as the data show it: active = inhibition above about 50%; inactive = the rest.

test system: glucose-6-phosphate dehydrogenase [Leuconostoc mesenteroides]; assay: bacterial G6PDH enzyme inhibition, coupled readout – biochemical, Leuconostoc mesenteroides enzyme, counter-screen for G6PDH-coupled screening assays (AID 1020); conditions: Purified L. mesenteroides G6PDH, diaphorase/resazurin coupled fluorescence, 45 min; at 5 µM; hits give high values

SMILES | inhibition
c1ccc(CN2CCC(Nc3ccccc3)CC2)cc1 | inactive: 11.6%
N#Cc1ccc(C(=O)NCC2(N3CCCCC3)CCCCC2)cc1 | inactive: 2.1%
N/C(=N\O)c1c(N)no[n+]1[O-] | inactive: 2.9%
O=C(OC1CN2CCC1CC2)C1c2ccccc2C=Cc2ccccc21 (stereo not given) | inactive: 4.7%
COc1ccc(C(=O)NCC2(N3CCOCC3)CCCCC2)cc1OC | inactive: 9.2%
COc1cc(OC)cc(C(=O)NCC2(N3CCOCC3)CCCCC2)c1 | inactive: 1.4%
CCC(CO)(C(=O)OC1CN2CCC1CC2)c1ccccc1 (stereo not given) | inactive: 5.1%
CCOc1ncccc1C(=O)NCC1(N2CCOCC2)CCCCC1 | inactive: 1.9%
CC(C)(C)OC(=O)N1CCC(Nc2ccccc2)CC1 | inactive: 4.2%
CCN1CCC(Nc2cccc(F)c2)CC1 | inactive: 5.7%
CN(C)c1ccc(C(=O)NCC2(N3CCCCC3)CCCCC2)cc1 | inactive: -1.7%
Fc1ccccc1NC1CCN(Cc2ccccc2)CC1 | inactive: 12.1%
COc1ccc(NC2CCN(CCc3ccccc3)CC2)c(OC)c1 | inactive: 6.5%
O=C(NCC1(N2CCOCC2)CCCCC1)c1cc2ccccc2o1 | inactive: 12.2%
O=C(OC1CN2CCC1CC2)C1c2ccccc2Oc2ccccc21 (stereo not given) | inactive: 3.8%
CCOC(=O)N1CCC(Nc2ccc(OC)cc2)CC1 | inactive: 3.1%
COc1ccc(C(=O)NCC2(N3CCCCC3)CCCCC2)c(OC)c1OC | inactive: -1.2%
CC(C)c1ccc(NC2CCN(C(=O)OC(C)(C)C)CC2)cc1 | inactive: 3.5%
CN(C)c1cccc(C(=O)NCC2(N3CCCCC3)CCCCC2)c1 | inactive: -1.4%
COc1ccc(CN(CCCl)CCCl)cc1Cl | inactive: 7.6%
O=C(NCC1(N2CCOCC2)CCCCC1)c1cc(=O)[nH]c2ccccc12 | inactive: 2.1%
CN1CCN(CCOC(=O)C(O)(c2ccccc2)c2ccccc2)CC1 | inactive: 10.3%
COc1ccc(NC2CCN(C(=O)OC(C)(C)C)CC2)cc1 | inactive: 18.7%
N#CC1(Nc2ccccc2)CCN(CCc2ccccc2)CC1 | inactive: 6.9%
O=C(NCC1(N2CCCCC2)CCCCC1)c1cccc([N+](=O)[O-])c1 | inactive: 5.8%
